# Assay results reported in PubChem BioAssay AID602363 (Broad Institute, 2012).
# In all, about 350,000 compounds went through this assay and about 450 (0.13%) were called active. This excerpt belongs to a sample that is enriched for actives. Values without a mark were called inactive.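 How the source made its calls: active means replicate mean at a twofold rise or more (about +100% in these data); inactive means the rest.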
# Assay: modulators of yeast start codon fidelity, primary screen, whole organism, S. cerevisiae, single point, plate reader (AID 602363)
# Conditions: S. cerevisiae UUG-firefly luciferase reporter, luminescence/redox ratio; at 18.7 µM; stronger effect = higher value
row,Structure (SMILES),activity score
1,O=C(C[C@H]1C[C@H]2c3cc(NC(=O)NC4CCCC4)ccc3O[C@H]2[C@H](CO)O1)NCCc1ccccc1,-18.1%
2,C[C@@H]1CN([C@H](C)CO)C(=O)c2cc(NS(=O)(=O)c3ccccc3)ccc2O[C@@H](C)CCCCO[C@H]1CN(C)C(=O)C1CCCCC1,18.3%
3,CCC(=O)N1[C@@H](CO)[C@H](c2ccc(-c3cccc(F)c3)cc2)[C@@H]1CNC(C)=O,2%
4,C[C@H](CO)N1C[C@H](C)[C@@H](CN(C)S(=O)(=O)c2cccs2)Oc2ccc(NC(=O)Nc3cccc4ccccc34)cc2CC1=O,-2.1%
5,C[C@@H]1CN([C@H](C)CO)C(=O)c2cccc(NC(=O)Nc3ccccc3)c2O[C@H]1CN(C)S(C)(=O)=O,1.91%
6,C[C@@H]1CN([C@H](C)CO)C(=O)c2cc(NS(=O)(=O)c3ccc(F)cc3)ccc2O[C@H]1CN(C)C(=O)Nc1cccc2ccccc12,-5.16%
7,CCC(=O)N(C)C[C@H]1Oc2cc(C#CC3CCCC3)ccc2S(=O)(=O)N([C@H](C)CO)C[C@@H]1C,-3%
8,COc1ccccc1-c1cn(CC[C@H]2CC[C@@H](NC(=O)CCN3CCCCC3)[C@@H](CO)O2)nn1,7.11%
9,O=C(Cc1ccccn1)NCC[C@H]1CC[C@H](NS(=O)(=O)c2ccccc2)[C@@H](CO)O1,7.13%
10,COc1cccc(S(=O)(=O)Nc2ccc3c(c2)C(=O)N(C)C[C@@H](OC)[C@H](C)CN(C(=O)Cc2cccnc2)[C@H](C)CO3)c1,-4.59%
11,O=C1N=C(N2CCc3ccccc3C2)S/C1=C\c1ccc(O)cc1,376% (active)
12,O=C1N=C(N2CCOCC2)S/C1=C\C=C/c1ccccc1,-1.22%
13,CCOc1cc(/C=C2\SC(N3CCCCC3)=NC2=O)ccc1O,6.38%
14,Cc1c(NC(=O)c2c([N+](=O)[O-])cnn2C)c(=O)n(-c2ccccc2)n1C,-20.3%
15,Cc1cc(C)c(S(=O)(=O)Nc2c(C)n(C)n(-c3ccccc3)c2=O)cc1[N+](=O)[O-],3.79%
16,Cc1c(Nc2cc(N3CCCC(C)C3)c3nonc3c2[N+](=O)[O-])c(=O)n(-c2ccccc2)n1C (configuration not stated),273% (active)
17,CC1CCCN(S(=O)(=O)c2ccc(N(C(=O)c3cnccn3)C(C(=O)NC3CCCCC3)c3cccs3)cc2)C1 (configuration not stated),130% (active)
18,O=C(NC1CCCCC1)C1CCCN(S(=O)(=O)c2cccs2)C1 (configuration not stated),-10.8%
19,CCc1ccc(N(C(=O)c2csnn2)C(C(=O)NC2CCCCC2)c2ccncc2)cc1 (configuration not stated),-16.9%
20,O=C(C[C@@H]1C[C@H]2c3cc(NC(=O)NC4CCCCC4)ccc3O[C@H]2[C@H](CO)O1)NCc1ccncc1,1.45%
21,CCCN1C[C@H](C)[C@H](OC)CN(C)C(=O)c2cc(NC(=O)C3CCOCC3)ccc2OC[C@@H]1C,7.64%
22,C[C@H](CO)N1C[C@H](C)[C@@H](CN(C)Cc2ccc(Cl)c(Cl)c2)Oc2ccc(NC(=O)Nc3ccc(C(F)(F)F)cc3)cc2CC1=O,-6.41%
23,COc1ccc(S(=O)(=O)N(C)C[C@@H]2OCCCC[C@@H](C)Oc3ccc(NC(=O)c4ccccc4)cc3C(=O)N([C@@H](C)CO)C[C@H]2C)cc1,-7.34%

row,Structure (SMILES),activity score
1,CO[C@H]1CN(C)C(=O)c2cc(NC(=O)Nc3cccc(F)c3)ccc2OC[C@H](C)N(C(C)=O)C[C@H]1C,2.41%
2,CCCc1cn(CC[C@@H]2CC[C@@H](NS(=O)(=O)c3ccccc3Cl)[C@@H](CO)O2)nn1,-13.1%
3,CN1C[C@@H]2[C@H](c3ccccc31)[C@@H](CO)N2C(=O)Nc1ccccc1,-3.49%
4,C[C@@H]1CN([C@H](C)CO)C(=O)c2cc(NC(=O)c3ccncc3)ccc2O[C@H]1CN(C)C(=O)Nc1ccc(C(F)(F)F)cc1,-1.07%
5,CCC(=O)N1C[C@@H](C)[C@H](OC)CN(C)C(=O)c2ccc(NC(=O)Nc3ccccc3)cc2OC[C@@H]1C,40.8%
6,C[C@H]1CCCCO[C@H](CN(C)C(=O)NC2CCCCC2)[C@@H](C)CN([C@@H](C)CO)C(=O)c2cc(NC(=O)Nc3ccc4c(c3)OCO4)ccc2O1,-4.52%
7,C[C@H]1CCCCO[C@H](CN(C)Cc2ccc(C(F)(F)F)cc2)[C@@H](C)CN([C@@H](C)CO)C(=O)c2cc(NC(=O)C3CCCCC3)ccc2O1,13.7%
8,CC1CCC(NC(=O)C2c3ccccc3C(=O)N2Cc2ccc3c(c2)OCO3)CC1 (configuration not stated),619% (active)
9,O=C(Nc1ccc(Cl)cc1)C1c2cccc[n+]2CC(=O)N1Cc1ccc2c(c1)OCO2 (configuration not stated),-9.17%
10,CCc1ccc(CN2C(=O)c3ccccc3C2C(=O)NCC2CCCO2)cc1 (configuration not stated),-17.4%
11,COc1ccc(S(=O)(=O)Nc2ccc3c(c2)CC(=O)N([C@H](C)CO)C[C@@H](C)[C@H](CN(C)S(=O)(=O)c2c(C)noc2C)O3)cc1,-0.184%
12,N#C[C@@H]1[C@H](c2ccc(C#Cc3cccc(F)c3)cc2)[C@@H](CO)N1C(=O)C1CCCC1,-38.1%
13,CN(C)CC(=O)N[C@@H]1CC[C@H](CC(=O)NCc2ccc(Cl)cc2)O[C@H]1CO,-7.2%
14,O=C(NCC[C@@H]1CC[C@H](NC(=O)C2CC2)[C@@H](CO)O1)c1cc(Cl)cc(Cl)c1,4.52%
15,C[C@@H]1CN([C@H](C)CO)C(=O)c2cc(-c3ccc(C#N)cc3)cnc2O[C@@H]1CN(C)CC1CC1,-0.028%
16,CO[C@H]1CN(C)C(=O)c2cc(NS(C)(=O)=O)ccc2OC[C@@H](C)N(Cc2ccccc2)C[C@@H]1C,1.29%
17,CCOC(=O)c1ccccc1NC(=O)COC(=O)CCC(=O)N1CCOCC1,19.5%
18,CC(=O)Nc1ccccc1-c1cn(CC(=O)N2CCOCC2)nn1,127% (active)
19,CC(=O)Nc1ccccc1OC(=O)N1CCOCC1,-18.2%
20,C[C@H](CO)N1C[C@H](C)[C@H](CN(C)Cc2ccc(Cl)c(Cl)c2)OCCCC[C@H](C)Oc2ccc(NC(=O)NC3CCCCC3)cc2C1=O,-1.13%
21,CCOCN(C(=O)Cn1c(C(C)O)nc2ccccc21)c1c(C)cccc1CC (configuration not stated),-13.4%
22,CCc1cccc(C)c1N(C(=O)Cn1c(CO)nc2ccccc21)C(C)COC (configuration not stated),593% (active)
23,Cc1ccccc1OC(=O)Cn1c(C(F)(F)F)nc2ccccc21,-13%

row,Structure (SMILES),activity score
1,COc1cc(C(=O)NCc2nnc(SCC(=O)c3ccc(Cl)cc3)o2)cc(OC)c1OC,-3.27%
2,COc1ccc2c(C)cc(SCC(=O)NCC3CCCO3)nc2c1 (configuration not stated),-4.78%
3,O=C(COc1ccc(Cl)cc1)NCc1nnc(SCC(=O)NCC2CCCO2)o1 (configuration not stated),199% (active)
4,O=S(=O)(N[C@@H]1CC[C@@H](CCn2cc(-c3ccccn3)nn2)O[C@@H]1CO)c1cccc(Cl)c1,-16.7%
5,C[C@@H]1CN([C@@H](C)CO)C(=O)c2cccc(NC(=O)Nc3ccc4c(c3)OCO4)c2O[C@@H]1CN(C)C(=O)Nc1ccc(F)cc1,-5.75%
6,CS(=O)(=O)Nc1ccc2c(c1)[C@H]1C[C@@H](CC(=O)N3CCOCC3)O[C@@H](CO)[C@H]1O2,-23.5%
7,C[C@H](CO)N1C[C@H](C)[C@@H](CN(C)S(C)(=O)=O)Oc2cc(C#CC3CC3)ccc2S1(=O)=O,13.1%
8,O=C(NC(=S)Nc1ccccc1N1CCCCC1)c1ccc(F)cc1,-15.2%
9,c1ccc(-n2cccc2)c(N2CCCCC2)c1,101% (active)
10,O=C(Nc1ccccc1N1CCCC1)c1ccc2ccccc2c1,-12.9%
11,C[C@@H]1CCCCO[C@H](CN(C)Cc2ccccc2)[C@@H](C)CN([C@@H](C)CO)C(=O)c2cc(NC(=O)Nc3ccc(F)cc3)ccc2O1,33.7%
12,C[C@H](CO)N1C[C@H](C)[C@@H](CN(C)C)Oc2c(NC(=O)Nc3ccc(F)cc3)cccc2C1=O,17.5%
13,CC(C)C#Cc1ccc2c(c1)O[C@H](CN(C)Cc1ccccn1)[C@H](C)CN([C@H](C)CO)S2(=O)=O,-7.68%
14,CO[C@H]1CN(C)C(=O)c2cc(NC(=O)C3CCCCC3)ccc2OC[C@H](C)N(C(=O)c2ccccc2)C[C@H]1C,-6.56%
15,C[C@H](CO)N1C[C@H](C)[C@H](CN(C)S(=O)(=O)c2cn(C)cn2)Oc2c(NC(=O)C3CCOCC3)cccc2C1=O,-12.8%
16,COc1ccc(NC(=O)N(C)C[C@H]2OCCCC[C@@H](C)Oc3ccc(NC(=O)NC4CCCCC4)cc3C(=O)N([C@@H](C)CO)C[C@H]2C)cc1,107% (active)
17,COc1ccc(NC(=O)N(C)C[C@@H]2OCCCC[C@@H](C)Oc3ccc(NC(=O)NC4CCCCC4)cc3C(=O)N([C@H](C)CO)C[C@@H]2C)cc1,2.02%
18,COc1ccc(NC(=O)N(C)C[C@H]2OCCCC[C@@H](C)Oc3ccc(NC(=O)NC4CCCCC4)cc3C(=O)N([C@H](C)CO)C[C@H]2C)cc1,21.6%
19,C[C@@H]1CN([C@H](C)CO)C(=O)c2cc(C#CC3CCCC3)cnc2O[C@H]1CN(C)C(=O)C1CC1,-6.27%
20,C[C@@H]1CN([C@H](C)CO)C(=O)Cc2cc(NS(=O)(=O)c3ccc(Cl)cc3)ccc2O[C@H]1CN(C)S(=O)(=O)c1cccs1,-8.01%
21,O=C(Cc1ccncc1)NCC[C@@H]1CC[C@H](NC(=O)Nc2ccc(Cl)cc2)[C@@H](CO)O1,34.2%
